Patent US12393007B2, “Method for adapting optical properties of an immersion mixture, and immersion mixtures and components thereof” (Carl Zeiss Microscopy GmbH, priority 2018, dated 2025)

Experiment: Refractive index ne at 23° C., reference wavelength 546.1 nm
Assay type: physicochemical

In the case of Cheminox PO-3-OH phenylacetate ester, the “ne (refractive index) of the substance” value is reported as 1.3551.
